# Reference: US20070218563A1, “Stiochiometrically defined dye-labelled substances for measuring glomerular filtration rate, the production thereof and their use” (Roche Diagnostics Operations, Inc., priority 2004, published 2007)
# Details: half-life in blood plasma, rat; for t/2 before UNX: before unilateral nephrectomy, administration into jugular vein; for t/2 after UNX: two days convalescence after unilateral nephrectomy
Substance,t/2 before UNX [min],t/2 after UNX [min]
fluorescein isothiocyanate cellobiose [FITC-CEL],34 ± 6,95 ± 12
fluorescein isothiocyanate hexaethylene glycol [FITC-HEG],45 ± 16,71 ± 39
fluorescein isothiocyanate mannose [FITC-MAN],58 ± 7,104 ± 37
